Assays:
Type in all cases: cell-based
[1] = biological target: Focal adhesion kinase 1 (Homo sapiens) (UniProt Q05397); test: Inhibition of PTK2 in human Panc-1 cells assessed as fold inhibition of PTK2 phosphorylation at Y397 residue at 5XIC50 incubated for 24 hrs by ELISA relative to control
[2] = biological target: Focal adhesion kinase 1 (Homo sapiens) (UniProt Q05397); test: Inhibition of PTK2 in human SUIT-2 cells at 5XIC50 incubated for 24 hrs by PamChip analysis relative to control
[3] = biological target: Focal adhesion kinase 1 (Homo sapiens) (UniProt Q05397); test: Inhibition of PTK2 in human SUIT-2 cells assessed as inhibition of PTK2 phosphorylation at Y397 residue at 5XIC50 incubated for 24 hrs by ELISA relative to control
[4] = biological target: Focal adhesion kinase 1 (Homo sapiens) (UniProt Q05397); test: Inhibition of PTK2 in human CAPAN-1 cells assessed as fold inhibition of PTK2 phosphorylation at Y397 residue at 5XIC50 incubated for 24 hrs by ELISA relative to control

Amino acid sequences for entries named in this document (tags omitted).
UniProt Q05397, whole entry, looked up: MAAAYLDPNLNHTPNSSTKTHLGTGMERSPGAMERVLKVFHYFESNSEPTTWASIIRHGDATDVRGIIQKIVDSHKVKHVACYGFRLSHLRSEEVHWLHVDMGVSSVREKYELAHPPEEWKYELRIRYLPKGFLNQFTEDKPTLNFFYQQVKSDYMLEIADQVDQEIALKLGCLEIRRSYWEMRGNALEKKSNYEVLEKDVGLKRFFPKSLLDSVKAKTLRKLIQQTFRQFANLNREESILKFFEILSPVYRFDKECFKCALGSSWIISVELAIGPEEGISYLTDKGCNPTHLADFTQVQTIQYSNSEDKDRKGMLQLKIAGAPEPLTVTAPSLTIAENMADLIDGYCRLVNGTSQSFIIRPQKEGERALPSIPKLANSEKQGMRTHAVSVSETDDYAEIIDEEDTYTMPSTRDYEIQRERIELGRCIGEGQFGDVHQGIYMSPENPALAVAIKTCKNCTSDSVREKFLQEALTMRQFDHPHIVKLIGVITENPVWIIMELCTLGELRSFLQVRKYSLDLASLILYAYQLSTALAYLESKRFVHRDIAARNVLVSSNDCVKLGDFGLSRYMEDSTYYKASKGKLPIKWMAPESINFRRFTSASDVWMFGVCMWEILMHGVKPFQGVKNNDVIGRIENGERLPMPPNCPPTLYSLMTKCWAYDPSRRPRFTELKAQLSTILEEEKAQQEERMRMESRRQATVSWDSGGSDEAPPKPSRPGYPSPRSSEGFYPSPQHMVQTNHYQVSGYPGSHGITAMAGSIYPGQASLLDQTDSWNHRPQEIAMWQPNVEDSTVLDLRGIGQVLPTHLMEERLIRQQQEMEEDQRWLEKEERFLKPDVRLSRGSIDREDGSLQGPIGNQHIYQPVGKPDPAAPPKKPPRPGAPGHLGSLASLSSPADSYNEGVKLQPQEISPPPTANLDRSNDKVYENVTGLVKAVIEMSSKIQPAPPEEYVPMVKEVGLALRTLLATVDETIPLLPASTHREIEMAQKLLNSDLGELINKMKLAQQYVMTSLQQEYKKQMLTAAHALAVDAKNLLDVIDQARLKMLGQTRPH

`Cn1cc(-c2nn3cc(-c4ccsc4)nc3s2)c2ccccc21` was tested, and the fold change (FC) [1] was 0.4, the fold change (FC) [2] was greater than 2 and the fold change (FC) [3] was 0.4. The fold change (FC) [4] was 0.4.

`c1ccc2c(-c3nn4cc(-c5ccsc5)nc4s3)c[nH]c2c1` gave a fold change (FC) [1] of 0.4, a fold change (FC) [3] of 0.4 and a fold change (FC) [4] of 0.4.

Reference: ChEMBL document CHEMBL4680190, “Imidazo[2,1-b] [1,3,4]thiadiazoles with antiproliferative activity against primary and gemcitabine-resistant pancreatic cancer cells” (Eur J Med Chem, 2020)
